The entries are a selection whose mix differs from that of the whole data set. Inconclusive results are not listed. Active and inactive are the calls of the source. The call rests on the fitted dose curve; in most records, active means well fitted falling curve with a large enough effect; inconclusive means small, poorly fitted or top-dose-only effect; inactive means no such curve, though single readings can be large or run the other way.

Sequences of proteins named here, by UniProt entry; tags and fusion partners are left off.
UniProt P80244, whole entry: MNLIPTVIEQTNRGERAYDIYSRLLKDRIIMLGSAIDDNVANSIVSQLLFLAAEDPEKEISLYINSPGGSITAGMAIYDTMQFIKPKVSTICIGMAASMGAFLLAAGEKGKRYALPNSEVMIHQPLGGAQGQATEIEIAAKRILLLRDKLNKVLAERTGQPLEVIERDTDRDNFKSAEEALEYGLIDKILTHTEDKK

The target of the experiment is ATP-dependent Clp protease proteolytic subunit (Bacillus subtilis (strain 168)) (UniProt P80244). The experiment can be described thus: qHTS Assay for Activators of ClpP. Further: the source files actives as falling curves though it sought activators and does not explain the sign; nearly all actives have a fitted effect of over 65% in size. The conditions noted are these: purified B. subtilis ClpP, FRET peptide cleavage, 20 min; at 57.5 µM (top of the series). A general note: In qHTS, concentration-response curves come from the screen itself.
For `CCc1ccc(OP(C)(=O)Nc2cccnc2)cc1` (stereo unspecified), the activity change, negative = active is inactive: -2.1%.

The record behind these values is PubChem BioAssay AID651965 (National Center for Advancing Translational Sciences (NCATS), 2013).
